From US20050266242A1 (WHITEHEAD INSTITUTE FOR BIOMEDICAL RESEARCH, published 2005)

Tests used:
[1] = molecular target: the molecule itself; assay: seeded polymerization of purified Rnq1, Thioflavin T fluorescence
seeded fiber assembly = molecular target: the molecule itself; assay: seeded fiber assembly

B1: Rnq1, purified recombinant protein (other)
chain: MDTDKLISEAESHFSQGNHAEAVAKLTSAAQSNPNDEQMSTIESLIQKIAGYVMDNRSGGSDASQDRAAGGGSSFMNTLMADSKGSSQTQLGKLALLATVMTHSSNKGSSNRGFDVGTVMSMLSGSGGGSQSMGASGLAALASQFFKSGNNSQGQGQGQGQGQGQGQGQGQGSFTALASLASSFMNSNNNNQQGQNQSSGGSSFGALASMASSFMHSNNNQNSNNSQQGYNQSYQNGNQNSQGYNNQQYQGGNGGYQQQQGQSGGAFSSLASMAQSYLGGGQTQSNQQQYNQQGQNNQQQYQQQGQNYQHQQQGQQQQQGHSSSFSALASMASSYLGNNSNSNSSYGGQQQANEYGRPQHNGQQQSNEYGRPQYGGNQNSNGQHESFNFSGNFSQQNNNGNQNRY
B1: binds [1].

B2: NM^K184C (NM in which the lysine residue at position 184 was substituted by cysteine) (other)
chain: MSDSNQGNNQQNYQQYSQNGNQQQGNNRYQGYQAYNAQAQPAGGYYQNYQGYSGYQQGGYQQYNPDAGYQQQYNPQGGYQQYNPQGGYQQQFNPQGGRGNYKNFNYNNNLQGYQAGFQPQSQGMSLNDFQKQQKQAAPKPKKTLKLVSSSGIKLANATKKVGTKPAESDKKEEEKSAETKEPTCEPTKVEEPVKKEEKPVQTEEKTEEKSELPKVEDLKISESTHNTNNANVTSADALIKEQEEEVDDEVVND
notes: also called K184C sonicated fibers; short NM^K184C fibrils
B2: binds (seeded fiber assembly).
